Results as given in patent US9725465B2, “Biaryl acetamide compounds and methods of use thereof” (Ambit Biosciences Corporation, priority 2013, dated 2017).

Experiments:
FLT3-ITD-F691L = FLT3-ITD-F691L (Homo sapiens (Human), UniProt P36888, F691L/INS600HVDFREYEYD); assay: pFLT3 MSD assay, Ba/F3 FLT3-ITD-F691L; assay type: cell-based; conditions: Ba/F3 FLT3-ITD-F691L cells, 2 hours, read-out: BaF3-FLT3-ITD-F691L pFlt3 IC50
FLT3-ITD-D835V = FLT3-ITD-D835V (Homo sapiens (Human), UniProt P36888, D835V/INS600HVDFREYEYD); assay: pFLT3 MSD assay, Ba/F3 FLT3-ITD-D835V; assay type: cell-based; conditions: Ba/F3 FLT3-ITD-D835V cells, 2 hours, read-out: BaF3-FLT3-ITD-D835V pFlt3 IC50
[1] = tested on: Ba/F3 cells expressing FLT3-ITD
[2] = tested on: Ba/F3 cells expressing FLT3-ITD-D835V

Row | SMILES | pIC50 (FLT3-ITD-F691L) | pIC50 (FLT3-ITD-D835V) | pIC50 [1] | pIC50 [2]
1 | CCN1CC(Oc2cc3ncc(-c4ccc(CC(=O)Nc5cc(C(C)(C)C(F)(F)F)on5)c(F)c4)nc3cc2OC)C1 [Example 149, 2-[4-[6-(1-ethylazetidin-3-yl)oxy-7-methoxy-quinoxalin-2-yl]-2-fluoro-phenyl]-N-[5-(2,2,2-trifluoro-1,1-dimethyl-ethyl)isoxazol-3-yl]acetamide] | 7.30 to 7.70 | 7.70 to 8.00 | > 8.00 | > 8.00
2 | COc1cc2nc(-c3ccc(CC(=O)Nc4cc(C(C)(C)C(F)(F)F)on4)c(F)c3)cnc2cc1OC1CN(C)C1 [Example 150, 2-[2-fluoro-4-[7-methoxy-6-(1-methylazetidin-3-yl)oxy-quinoxalin-2-yl]phenyl]-N-[5-(2,2,2-trifluoro-1,1-dimethyl-ethyl)isoxazol-3-yl]acetamide] | 7.70 to 8.00 | > 8.00 | > 8.00 | > 8.00
3 | COc1cc2ncc(-c3ccc(CC(=O)Nc4cc(C5(C(F)(F)F)CC5)on4)c(F)c3)nc2cc1O [Example 157, 2-[2-fluoro-4-(7-hydroxy-6-methoxy-quinoxalin-2-yl)phenyl]-N-[5-[1-(trifluoro-methyl)cyclopropyl]isoxazol-3-yl]acetamide] | > 8.00 | > 8.00 | > 8.00 | > 8.00
4 | COc1cc2ncc(-c3ccc(CC(=O)Nc4cc(C5(C(F)(F)F)CC5)on4)c(F)c3)nc2cc1OCCN(C)C [Example 158, 2-[4-[7-[2-(dimethylamino)ethoxy]-6-methoxy-quinoxalin-2-yl]-2-fluoro-phenyl]-N-[5-[1-(trifluoromethyl)cyclo-propyl]isoxazol-3-yl]acetamide] | > 8.00 | > 8.00 | > 8.00 | > 8.00
5 | COc1cc2nc(-c3ccc(CC(=O)Nc4cc(C(C)(C)C(F)(F)F)on4)c(F)c3)cnc2cc1OCCO [Example 165, 2-[2-fluoro-4-[6-(2-hydroxyethoxy)-7-methoxy-quinoxalin-2-yl]phenyl]-N-[5-(2,2,2-trifluoro-1,1-dimethyl-ethyl)isoxazol-3-yl]acetamide] | > 8.00 | > 8.00 | > 8.00 | > 8.00
6 | COc1cc2nc(-c3ccc(CC(=O)Nc4cc(C5(C(F)(F)F)CC5)on4)c(F)c3)cnc2cc1OCCN [Example 167, 2-[4-[6-(2-aminoethoxy)-7-methoxy-quinoxalin-2-yl]-2-fluoro-phenyl]-N-[5-[1-(trifluoromethyl)cyclo-propyl]isoxazol-3-yl]acetamide] | > 8.00 | > 8.00 | > 8.00 | > 8.00
7 | COc1cc2ncc(-c3ccc(CC(=O)Nc4cc(C(C)(C)C(F)(F)F)on4)c(F)c3)nc2cc1OCCO [Example 170, 2-[2-fluoro-4-[7-(2-hydroxyethoxy)-6-methoxy-quinoxalin-2-yl]phenyl]-N-[5-(2,2,2-trifluoro-1,1-dimethyl-ethyl)isoxazol-3-yl]acetamide] | > 8.00 | > 8.00 | > 8.00 | > 8.00
8 | COCCOc1cc2nc(-c3ccc(CC(=O)Nc4cc(C5(C(F)(F)F)CC5)on4)c(F)c3)cnc2cc1OC [compound 77] | > 8.00 | > 8.00 | > 8.00 | > 8.00

pIC50: −log10 of the molar value.
